# Data: PubChem BioAssay AID504374 (National Center for Advancing Translational Sciences (NCATS), 2011)
# Amino acid sequences for entries named in this document (tags omitted).
# UniProt Q01196, whole entry, looked up: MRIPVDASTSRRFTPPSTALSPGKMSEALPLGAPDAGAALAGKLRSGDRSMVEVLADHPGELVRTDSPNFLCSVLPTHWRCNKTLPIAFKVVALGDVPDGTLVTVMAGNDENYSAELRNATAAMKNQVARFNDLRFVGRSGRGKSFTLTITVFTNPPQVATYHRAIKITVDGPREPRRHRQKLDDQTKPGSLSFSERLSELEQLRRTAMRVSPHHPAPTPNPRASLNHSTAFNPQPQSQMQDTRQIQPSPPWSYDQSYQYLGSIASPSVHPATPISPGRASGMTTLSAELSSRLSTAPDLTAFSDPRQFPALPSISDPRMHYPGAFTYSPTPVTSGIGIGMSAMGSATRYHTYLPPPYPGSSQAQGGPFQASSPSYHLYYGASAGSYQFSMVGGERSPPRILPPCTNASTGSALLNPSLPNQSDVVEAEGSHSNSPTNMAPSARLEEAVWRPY
# UniProt Q13951, whole entry, looked up: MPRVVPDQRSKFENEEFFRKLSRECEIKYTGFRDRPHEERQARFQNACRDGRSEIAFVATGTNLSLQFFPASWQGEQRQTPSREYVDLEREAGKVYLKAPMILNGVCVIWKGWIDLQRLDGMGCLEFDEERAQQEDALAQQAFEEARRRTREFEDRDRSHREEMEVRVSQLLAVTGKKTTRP
# Only a part is listed here, and it is no random draw. Results filed as inconclusive are left out. Active and inactive are the calls of the source. Calls come from the whole dose curve; as a rule, active = well fitted inhibition curve with a large enough effect; inconclusive = small, poorly fitted or top-dose-only effect, or effect the other way; inactive = flat fitted curve, though single readings scatter.
# Target: Runt-related transcription factor 1 (Homo sapiens) + Core-binding factor subunit beta (Homo sapiens) (UniProt Q01196+Q13951)
# Experiment: qHTS Assay for Compounds Blocking the Interaction Between CBF-beta and RUNX1 for the Treatment of Acute Myeloid Leukemia: Hit Validation; note: nearly all actives have a fitted effect of over 60% in size
# Settings: AlphaScreen CBFb-His/RUNX1-biotin binding; at 59.8 µM (top of the series)
# % is set by controls: 0 for no effect and ±100 for the full control effect.
row,SMILES,"activity, negative = inhibition"
1,Nc1cccc([As](=O)(O)c2ccccc2)c1,inactive: -7.75%
2,Nc1ccccc1[As](=O)(O)c1ccccc1,inactive: -3.37%
3,O=[As](O)(O)c1cccnc1,inactive: -1.13%
4,COc1cc(I)ccc1[As](=O)(O)O,inactive: -0.653%
5,O=[As](O)(c1ccc(O)cc1)c1ccccc1O,inactive: -19.4%
6,CCOC(=O)Nc1ccc([As](=O)(O)O)c(O)c1,inactive: -5.75%
7,O=P(Nc1nc2ccc(Cl)cc2s1)(c1ccccc1)c1ccccc1,inactive: -13%
8,O=[As](O)(c1ccccc1)c1ccc(O)cc1,inactive: -12.2%
